Test results as given in patent US8895695B2, “Template-fixed beta-hairpin peptidomimetics with CXCR4 antagonizing activity” (priority 2003, dated 2014).

The chains behind the UniProt entries cited, without tags or fusion partners.
UniProt P61073, whole entry: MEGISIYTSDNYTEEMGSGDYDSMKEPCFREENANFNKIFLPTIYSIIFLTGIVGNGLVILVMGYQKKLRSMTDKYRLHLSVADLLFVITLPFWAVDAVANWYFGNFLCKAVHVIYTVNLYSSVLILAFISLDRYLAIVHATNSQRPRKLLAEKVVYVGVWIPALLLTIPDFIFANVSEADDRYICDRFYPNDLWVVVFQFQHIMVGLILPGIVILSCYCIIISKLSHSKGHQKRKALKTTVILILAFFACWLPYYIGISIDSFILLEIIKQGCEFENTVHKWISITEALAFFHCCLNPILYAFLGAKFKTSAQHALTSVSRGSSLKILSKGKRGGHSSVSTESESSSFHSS

target: CXCR4 (Homo sapiens, UniProt P61073); test: Ca2+-assay method 2 (Flexstation, SDF-1 induced calcium mobilization); assay type: cell-based; set-up: expressed in transfected cells; host or cells: mouse pre-B cell line 300-19; conditions: IC50 (nM) Ca^2+ assay, method 2 (Ex. 54-160), mouse pre-B cell line 300-19 with human CXCR4, 10 nM SDF-1
Method: 2.2. Ca^2+-Assay: CXCR4-Antagonizing Activity of the Peptides.
The cells were batch loaded with the Calcium 3 Assay kit (Molecular Devices) in assay buffer (Hanks Balanced salt solution, HBSS, 20 mM HEPES, pH 7.4, 0.1% BSA) for 1 h at room temperature and then 200,000 labeled cells were dispensed into black 96 well assays plates (Costar No. 3603). A 20-fold concentrated solution of peptide in assay buffer was added to the cells and the whole plate was centrifuged to settle the cells to the bottom of the wells. Calcium mobilization induced by 10 nM stromal-derived factor-1 (SDF-1) was measured in the Flexstation 384 (excitation, 485 nM; emission, 525 nM) for 90 seconds. A maximal change in fluorescence response above baseline was used to calculate antagonist activity. The data for dose response curves (antagonist concentration versus % maximum response) were fitted to a four parameter logistic equation using SoftmaxPro 4.6 (Molecular Devices), from which IC50% values were calculated.

Compound | IC50 [nM]
N=C(N)NCCC[C@@H]1NC(=O)[C@@H]2CSSC[C@H](NC(=O)[C@H](Cc3c[nH]c4ccccc34)NC(=O)[C@H](CCCNC(=N)N)NC(=O)[C@H](CCCNC(=N)N)NC(=O)[C@H]3CCCN3C(=O)CNC1=O)C(=O)N[C@@H](Cc1ccc(O)cc1)C(=O)N[C@@H](CCC(N)=O)C(=O)N[C@@H](CCCCN)C(=O)NCC(=O)N[C@@H](Cc1ccc(O)cc1)C(=O)N[C@@H](CCCCN)C(=O)NCC(=O)N[C@@H](Cc1ccc(O)cc1)C(=O)NCC(=O)N[C@@H](Cc1ccc(O)cc1)C(=O)N[C@@H](CCCNC(=N)N)C(=O)N[C@@H](CCCNC(N)=O)C(=O)N2 [Ex. 156] | 49
C[C@@H](O)[C@@H]1NC(=O)[C@H](CCCNC(=N)N)NC(=O)[C@H](Cc2ccc(O)cc2)NC(=O)CNC(=O)[C@H](Cc2ccc(O)cc2)NC(=O)[C@@H]2CCCN2C(=O)[C@H]2CCCN2C(=O)[C@H](Cc2ccc(O)cc2)NC(=O)CNC(=O)[C@H](CCCCN)NC(=O)[C@H](CCC(N)=O)NC(=O)[C@H](Cc2ccc(O)cc2)NC(=O)[C@@H]2CSSC[C@H](NC1=O)C(=O)N[C@@H](CCCNC(=N)N)C(=O)NCC(=O)N1CCC[C@H]1C(=O)N[C@@H](CCCNC(=N)N)C(=O)N[C@@H](CCCNC(=N)N)C(=O)N[C@@H](Cc1ccc(O)cc1)C(=O)N2 [Ex. 159] | 118
N=C(N)NCCC[C@@H]1NC(=O)[C@@H]2CSSC[C@H](NC(=O)[C@H](Cc3c[nH]c4ccccc34)NC(=O)[C@H](CCCNC(=N)N)NC(=O)[C@H](CCCNC(=N)N)NC(=O)[C@@H]3CCCN3C(=O)CNC1=O)C(=O)N[C@@H](Cc1ccc(O)cc1)C(=O)N[C@@H](CCC(N)=O)C(=O)N[C@@H](CCCCN)C(=O)NCC(=O)N[C@@H](Cc1ccc(O)cc1)C(=O)N1CCC[C@@H]1C(=O)N1CCC[C@H]1C(=O)N[C@@H](Cc1ccc(O)cc1)C(=O)NCC(=O)N[C@@H](Cc1ccc(O)cc1)C(=O)N[C@@H](CCCNC(=N)N)C(=O)N[C@@H](CCCNC(N)=O)C(=O)N2 [Ex. 158] | 250
N=C(N)NCCC[C@@H]1NC(=O)[C@@H]2CSSC[C@H](NC(=O)[C@H](Cc3c[nH]c4ccccc34)NC(=O)[C@H](CCCNC(=N)N)NC(=O)[C@H](CCCNC(=N)N)NC(=O)[C@H]3CCCN3C(=O)CNC1=O)C(=O)N[C@@H](Cc1ccc(O)cc1)C(=O)N[C@@H](CCC(N)=O)C(=O)N[C@@H](CCCCN)C(=O)NCC(=O)N[C@@H](Cc1ccc(O)cc1)C(=O)N[C@H](CCCCN)C(=O)NCC(=O)N[C@@H](Cc1ccc(O)cc1)C(=O)NCC(=O)N[C@@H](Cc1ccc(O)cc1)C(=O)N[C@@H](CCCNC(=N)N)C(=O)N[C@@H](CCCNC(N)=O)C(=O)N2 [Ex. 157] | 11.3
